The test system of one series is Rat plasma-protein. The series is described as follows: Rat plasma-protein binding. It is filed as in vitro ADME.
A further series concerns the target PI3K δ (Homo sapiens, UniProt O00329). The series can be described thus: Enzyme activity test in vitro (ADP-Glo lipid kinase), PI3K δ. The settings on record: read-out: PI3K δ IC50, ATP 40 μM, 120 min. In general terms: ADP-Glo first removes unused ATP, then detects ADP through luciferase.
The subject of series [1] is MDCK cells with high expression of MDR1. The series is described as follows: MDCK-MDR1 permeability test. Format: in vitro ADME. The settings on record: 2 μM, pH 7.4, 2.5 hours.
Series [2] in a line: In vivo plasma/brain tissue distribution study in male SD rats.
Series [3] relates to HCC1954 cells with PIK3CA mutation. The series can be described thus: Cell activity test in vitro, anti-proliferation by CTG method, HCC1954. The settings on record: read-out: HCC1954 Cell IC50, 72 hours.
In a further series the target is PI3K β (Homo sapiens, UniProt P42338). The series can be described thus: Enzyme activity test in vitro (ADP-Glo lipid kinase), PI3K β. The conditions noted are these: read-out: PI3K β IC50, ATP 40 μM, 120 min.
Series [4] is described as follows: In vivo DMPK study in male CD-1 mice.
The target in the next series is PI3K γ (Homo sapiens, UniProt P48736). The series is described as follows: Enzyme activity test in vitro (ADP-Glo lipid kinase), PI3K γ. The settings on record: read-out: PI3K γ IC50, ATP 25 μM, 120 min.
Another series addresses PI3K α (Homo sapiens, UniProt P42336). The series can be described thus: Enzyme activity test in vitro (ADP-Glo lipid kinase), PI3K α. The conditions noted are these: read-out: PI3K α IC50, ATP 40 μM, 120 min.
[5] abbreviates: oral 10 mpk, cerebrospinal fluid.

Chains of the proteins cited; added tags and fusions are not shown. Lines headed by an entry give the natural chain unless they say otherwise; changes in a name come on top.
UniProt O00329, whole entry: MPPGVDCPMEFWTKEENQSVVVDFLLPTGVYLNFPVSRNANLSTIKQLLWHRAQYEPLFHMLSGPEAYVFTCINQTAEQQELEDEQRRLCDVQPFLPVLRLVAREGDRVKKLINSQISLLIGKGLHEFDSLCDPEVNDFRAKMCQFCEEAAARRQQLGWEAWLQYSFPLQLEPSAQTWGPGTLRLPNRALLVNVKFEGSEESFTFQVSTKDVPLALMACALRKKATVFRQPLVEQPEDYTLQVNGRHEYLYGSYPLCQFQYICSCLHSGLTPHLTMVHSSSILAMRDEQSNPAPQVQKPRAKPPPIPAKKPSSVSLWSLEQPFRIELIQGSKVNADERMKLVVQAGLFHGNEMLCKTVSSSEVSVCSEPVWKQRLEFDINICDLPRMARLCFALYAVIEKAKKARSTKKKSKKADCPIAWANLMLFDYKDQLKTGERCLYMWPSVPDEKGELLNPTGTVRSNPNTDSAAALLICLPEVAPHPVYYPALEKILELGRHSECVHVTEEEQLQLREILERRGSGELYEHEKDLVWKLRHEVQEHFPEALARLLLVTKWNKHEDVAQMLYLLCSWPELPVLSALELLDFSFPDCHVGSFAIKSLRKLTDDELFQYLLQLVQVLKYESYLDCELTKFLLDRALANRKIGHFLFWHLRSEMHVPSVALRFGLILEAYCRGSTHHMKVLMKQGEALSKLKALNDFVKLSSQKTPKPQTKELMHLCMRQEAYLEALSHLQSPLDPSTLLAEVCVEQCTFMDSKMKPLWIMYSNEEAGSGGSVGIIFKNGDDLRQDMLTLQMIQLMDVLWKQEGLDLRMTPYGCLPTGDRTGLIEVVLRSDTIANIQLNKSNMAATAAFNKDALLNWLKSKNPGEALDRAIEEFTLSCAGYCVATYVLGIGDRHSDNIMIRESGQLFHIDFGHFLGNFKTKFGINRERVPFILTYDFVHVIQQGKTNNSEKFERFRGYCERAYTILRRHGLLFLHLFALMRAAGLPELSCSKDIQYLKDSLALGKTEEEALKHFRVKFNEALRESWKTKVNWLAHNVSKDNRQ
UniProt P42338, whole entry: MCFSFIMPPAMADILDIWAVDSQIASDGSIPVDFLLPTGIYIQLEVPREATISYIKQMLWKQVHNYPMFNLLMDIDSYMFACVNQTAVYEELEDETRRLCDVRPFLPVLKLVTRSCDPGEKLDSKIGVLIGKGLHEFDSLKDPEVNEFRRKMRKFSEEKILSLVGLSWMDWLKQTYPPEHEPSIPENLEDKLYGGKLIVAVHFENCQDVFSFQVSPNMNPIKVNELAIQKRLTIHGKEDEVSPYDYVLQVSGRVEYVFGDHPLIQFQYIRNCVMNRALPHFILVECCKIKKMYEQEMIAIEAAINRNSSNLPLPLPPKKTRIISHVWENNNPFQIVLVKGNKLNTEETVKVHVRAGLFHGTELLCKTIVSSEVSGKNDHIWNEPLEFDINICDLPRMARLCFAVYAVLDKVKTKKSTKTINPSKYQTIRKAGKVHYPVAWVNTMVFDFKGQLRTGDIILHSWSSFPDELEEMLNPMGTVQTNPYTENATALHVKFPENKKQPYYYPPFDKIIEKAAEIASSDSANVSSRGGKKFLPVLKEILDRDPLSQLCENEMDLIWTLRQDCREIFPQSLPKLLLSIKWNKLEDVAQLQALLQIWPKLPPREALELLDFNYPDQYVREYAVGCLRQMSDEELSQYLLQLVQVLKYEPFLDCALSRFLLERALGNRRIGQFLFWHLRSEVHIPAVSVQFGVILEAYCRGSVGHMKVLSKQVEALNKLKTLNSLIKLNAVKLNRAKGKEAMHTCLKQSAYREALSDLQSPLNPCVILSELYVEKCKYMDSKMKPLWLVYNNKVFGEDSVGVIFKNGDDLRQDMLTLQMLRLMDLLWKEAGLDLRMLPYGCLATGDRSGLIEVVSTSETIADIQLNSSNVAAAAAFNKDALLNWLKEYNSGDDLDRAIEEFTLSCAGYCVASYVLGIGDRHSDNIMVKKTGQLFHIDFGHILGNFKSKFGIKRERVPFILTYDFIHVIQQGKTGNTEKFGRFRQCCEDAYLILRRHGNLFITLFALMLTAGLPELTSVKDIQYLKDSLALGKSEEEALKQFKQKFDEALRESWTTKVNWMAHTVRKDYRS
UniProt P48736, whole entry: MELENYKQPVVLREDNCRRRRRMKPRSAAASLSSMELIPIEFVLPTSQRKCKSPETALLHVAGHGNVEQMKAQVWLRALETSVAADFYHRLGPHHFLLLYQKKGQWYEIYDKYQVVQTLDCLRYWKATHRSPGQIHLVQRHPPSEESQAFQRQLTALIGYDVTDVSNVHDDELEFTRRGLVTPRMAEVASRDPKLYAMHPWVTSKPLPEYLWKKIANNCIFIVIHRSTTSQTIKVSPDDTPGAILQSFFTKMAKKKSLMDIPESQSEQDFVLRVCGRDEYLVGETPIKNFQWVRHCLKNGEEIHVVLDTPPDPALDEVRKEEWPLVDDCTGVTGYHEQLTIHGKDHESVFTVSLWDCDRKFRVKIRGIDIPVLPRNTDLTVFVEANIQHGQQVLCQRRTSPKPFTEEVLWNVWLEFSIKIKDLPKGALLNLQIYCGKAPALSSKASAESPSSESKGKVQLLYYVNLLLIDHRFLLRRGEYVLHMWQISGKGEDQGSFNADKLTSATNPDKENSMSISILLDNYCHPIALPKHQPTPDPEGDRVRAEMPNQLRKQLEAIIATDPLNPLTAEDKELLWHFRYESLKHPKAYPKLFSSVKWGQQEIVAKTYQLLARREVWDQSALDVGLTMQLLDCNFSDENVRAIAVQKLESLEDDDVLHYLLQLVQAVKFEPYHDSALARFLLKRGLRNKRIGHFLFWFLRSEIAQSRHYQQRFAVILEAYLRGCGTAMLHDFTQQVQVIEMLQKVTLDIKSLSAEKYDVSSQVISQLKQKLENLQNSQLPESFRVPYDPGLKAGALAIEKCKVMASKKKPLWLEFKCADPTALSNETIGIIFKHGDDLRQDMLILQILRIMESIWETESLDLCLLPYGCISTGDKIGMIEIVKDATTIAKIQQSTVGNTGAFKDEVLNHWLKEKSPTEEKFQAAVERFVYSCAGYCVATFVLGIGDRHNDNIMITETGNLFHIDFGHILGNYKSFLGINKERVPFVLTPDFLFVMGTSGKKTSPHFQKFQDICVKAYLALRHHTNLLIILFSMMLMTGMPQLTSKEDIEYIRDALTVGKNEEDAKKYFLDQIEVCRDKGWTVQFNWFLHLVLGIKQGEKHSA
UniProt P42336, whole entry: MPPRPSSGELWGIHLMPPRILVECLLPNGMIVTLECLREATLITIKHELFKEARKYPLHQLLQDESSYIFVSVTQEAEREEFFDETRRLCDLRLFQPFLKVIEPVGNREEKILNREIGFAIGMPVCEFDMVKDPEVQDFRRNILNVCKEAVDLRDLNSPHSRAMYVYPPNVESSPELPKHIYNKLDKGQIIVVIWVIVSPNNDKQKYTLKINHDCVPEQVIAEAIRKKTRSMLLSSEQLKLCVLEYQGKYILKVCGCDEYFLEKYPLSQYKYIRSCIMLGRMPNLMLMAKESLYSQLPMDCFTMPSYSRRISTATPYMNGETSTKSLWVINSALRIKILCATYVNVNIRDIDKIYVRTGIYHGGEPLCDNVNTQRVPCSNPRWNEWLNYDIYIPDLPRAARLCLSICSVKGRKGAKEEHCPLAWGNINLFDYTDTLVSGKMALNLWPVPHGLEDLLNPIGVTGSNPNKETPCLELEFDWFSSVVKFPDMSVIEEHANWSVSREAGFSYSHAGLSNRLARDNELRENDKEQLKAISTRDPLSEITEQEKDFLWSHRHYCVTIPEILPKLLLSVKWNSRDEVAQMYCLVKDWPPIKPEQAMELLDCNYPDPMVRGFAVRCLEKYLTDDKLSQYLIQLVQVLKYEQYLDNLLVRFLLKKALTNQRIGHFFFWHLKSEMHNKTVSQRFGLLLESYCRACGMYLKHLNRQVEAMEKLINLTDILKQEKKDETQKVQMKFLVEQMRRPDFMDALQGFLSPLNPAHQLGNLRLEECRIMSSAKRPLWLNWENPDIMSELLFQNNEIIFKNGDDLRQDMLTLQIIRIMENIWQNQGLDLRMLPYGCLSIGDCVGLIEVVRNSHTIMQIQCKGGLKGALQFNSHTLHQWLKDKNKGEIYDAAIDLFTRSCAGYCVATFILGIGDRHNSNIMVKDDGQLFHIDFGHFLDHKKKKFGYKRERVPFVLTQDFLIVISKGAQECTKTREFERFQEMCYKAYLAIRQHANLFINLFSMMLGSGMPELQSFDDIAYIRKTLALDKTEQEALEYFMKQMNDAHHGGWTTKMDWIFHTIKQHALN
UniProt P27986, whole entry partner: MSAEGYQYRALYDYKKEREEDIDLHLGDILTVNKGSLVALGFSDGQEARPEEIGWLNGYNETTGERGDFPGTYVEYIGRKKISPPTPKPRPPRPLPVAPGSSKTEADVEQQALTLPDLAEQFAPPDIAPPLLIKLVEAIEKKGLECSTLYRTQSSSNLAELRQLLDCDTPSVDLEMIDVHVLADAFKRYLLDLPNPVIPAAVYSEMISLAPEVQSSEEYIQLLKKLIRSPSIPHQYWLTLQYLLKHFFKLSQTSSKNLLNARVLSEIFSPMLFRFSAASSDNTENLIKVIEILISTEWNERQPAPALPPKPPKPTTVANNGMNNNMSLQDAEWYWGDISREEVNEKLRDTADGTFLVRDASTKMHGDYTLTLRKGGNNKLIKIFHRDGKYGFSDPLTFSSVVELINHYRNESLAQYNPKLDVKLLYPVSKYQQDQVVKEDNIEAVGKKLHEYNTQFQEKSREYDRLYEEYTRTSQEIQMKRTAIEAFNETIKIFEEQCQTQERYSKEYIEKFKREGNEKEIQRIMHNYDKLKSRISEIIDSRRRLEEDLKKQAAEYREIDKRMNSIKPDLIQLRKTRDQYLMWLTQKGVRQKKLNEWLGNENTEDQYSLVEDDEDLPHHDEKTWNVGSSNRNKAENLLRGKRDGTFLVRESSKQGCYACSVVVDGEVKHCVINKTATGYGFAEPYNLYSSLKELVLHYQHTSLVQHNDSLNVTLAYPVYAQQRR

Each structure is given as a SMILES string. Bounds are passed on as bounds.

As a reminder, the IC50 is the concentration that inhibits the measured activity by half. As for `CO/N=C(\N)C(C)Nc1ccc2c(c1)OCCn1cc(N3C(=O)OC[C@H]3C(F)F)nc1-2` (some centres unmarked), the “Rat plasma-protein binding, unbound %” value in the series on Rat plasma-protein is recorded as 23.9%. Further, the IC50 at PI3K δ is 0.0169 µM. For the same compound, in [1], the “Permeability, MDCK-MDR1, A to B” value was 16.9 10^−6 cm/s; the “Permeability, MDCK-MDR1, B to A” value is reported as 32.8 10^−6 cm/s; the Permeability, MDCK-MDR1, Efflux Ratio is 1.94. Further, in [2] (oral 10 mpk), the “Cerebrospinal fluid/plasma free drug ratio” value is 0.21. Further, in [2] (oral 10 mpk, brain tissue), the “AUC, Brain tissue” value worked out at 2082 nM·h; the “Cmax, Brain tissue” value was determined as 1043 nM; the “T1/2, Brain tissue” value stood at 1.45 h; the “Tmax, Brain tissue” value is 15 min. Also, in [2] (setting [5]), the “AUC, Cerebrospinal fluid” value is 1077 nM·h; the “T1/2, Cerebrospinal fluid” value worked out at 1.38 h; the “Tmax, Cerebrospinal fluid” value was 15 min. In addition, in series [2] (oral 10 mpk, plasma), the “AUC, Plasma” value is 21.717 µM·h; the “T1/2, Plasma” value worked out at 1.72 h; the “Tmax, Plasma” value turned out to be 15 min. For the same compound, in series [2] (read-out: Cmax, Cerebrospinal fluid, oral 10 mpk, cerebrospinal fluid), the Cmax was found to be 0.552 µM. In [2] (read-out: Cmax, Plasma, oral 10 mpk, plasma), the Cmax came to 10.3 µM. The IC50 in series [3] was determined as 207 nM. Also, the IC50 on PI3K β was determined as 0.705 µM. Besides, in [4] (1 mg/kg intravenous), the “Intravenous injection Cl” value stood at 5.30 mL/min/kg, the “Intravenous injection T1/2” value is 1.13 h and the “Intravenous injection Vd” value was determined as 0.372 L/kg. In [4] (3 mg/kg oral administration), the “Oral DNAUC” value stood at 6441 nM · h/mpk. Besides, the “Oral F %” value in [4] (3 mg/kg oral vs 1 mg/kg intravenous) is reported as 89.1%. For the same compound, the Cmax in series [4] (read-out: Oral Cmax, 3 mg/kg oral administration) was determined as 9.35 µM. In addition, at PI3K γ, the concentration for half-maximal inhibition (IC50) came out at 0.0359 µM. For the same compound, the half-inhibitory concentration (IC50) at PI3K α was 1.22 nM.

`CN=C1OC[C@@H](C(F)F)N1c1cn2c(n1)-c1ccc(NC(C)C(N)=O)cc1OCC2` (some centres unmarked): the half-inhibitory concentration (IC50) at PI3K δ was more than 10 µM; in series [3], 187 nM; on PI3K β, more than 10 µM; on PI3K γ it was more than 10 µM; at PI3K α, 18.9 nM.

For `CC(Nc1ccc2c(c1)OCCn1cc(N3C(=N)OC[C@H]3C(F)F)nc1-2)C(N)=O` (some centres unmarked), the IC50 at PI3K δ was more than 10 µM; in [3] it was 244 nM; on PI3K β it was more than 10 µM; at PI3K γ it was more than 10 µM; at PI3K α, 5.52 nM.
